Reference: ChEMBL document CHEMBL1144293, “4-(2-Pyridyl)piperazine-1-benzimidazoles as potent TRPV1 antagonists” (Bioorg Med Chem Lett, 2005)

Protein sequences, listed by entry. Tags and fused reporters are not part of them.
UniProt Q8NER1, whole entry: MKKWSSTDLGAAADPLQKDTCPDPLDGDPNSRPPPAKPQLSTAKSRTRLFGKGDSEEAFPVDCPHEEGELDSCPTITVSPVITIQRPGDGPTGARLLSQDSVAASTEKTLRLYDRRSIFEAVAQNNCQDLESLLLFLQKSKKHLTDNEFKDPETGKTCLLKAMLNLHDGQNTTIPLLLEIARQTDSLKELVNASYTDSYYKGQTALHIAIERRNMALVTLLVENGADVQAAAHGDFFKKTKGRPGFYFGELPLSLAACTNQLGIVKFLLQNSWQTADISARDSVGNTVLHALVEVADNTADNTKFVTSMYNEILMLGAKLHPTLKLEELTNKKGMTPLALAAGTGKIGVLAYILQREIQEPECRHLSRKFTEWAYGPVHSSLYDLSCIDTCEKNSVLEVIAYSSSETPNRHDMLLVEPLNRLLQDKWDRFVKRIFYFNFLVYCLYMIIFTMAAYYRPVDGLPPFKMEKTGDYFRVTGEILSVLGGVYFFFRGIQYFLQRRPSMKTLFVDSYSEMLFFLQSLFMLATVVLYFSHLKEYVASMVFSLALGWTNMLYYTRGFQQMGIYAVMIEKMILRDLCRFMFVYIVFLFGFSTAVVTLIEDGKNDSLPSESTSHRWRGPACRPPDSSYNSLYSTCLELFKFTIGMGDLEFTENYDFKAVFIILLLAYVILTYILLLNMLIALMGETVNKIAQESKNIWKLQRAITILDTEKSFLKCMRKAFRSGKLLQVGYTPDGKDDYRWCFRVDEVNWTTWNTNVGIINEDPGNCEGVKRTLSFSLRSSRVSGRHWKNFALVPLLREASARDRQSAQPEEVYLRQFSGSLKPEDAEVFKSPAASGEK

How the values were obtained:
[1] = molecular target: T1, Transient receptor potential cation channel subfamily V member 1 (Homo sapiens, UniProt Q8NER1); test: Antagonist activity in capsaicin-induced FLIPR assays in HEK293 cells expressing human TRPV1; format: functional, cell-based
In short: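 HEK293 cells stably expressing human TRPV1; channel activated with 100 nM capsaicin and block of the calcium influx read on a fluorometric imaging plate reader (FLIPR). IC50 given as mean ± SEM of at least three determinations.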

[2] = molecular target: T1, Transient receptor potential cation channel subfamily V member 1; test: Antagonist activity in pH 5.5-induced FLIPR assays in HEK293 cells expressing human TRPV1; format: functional, cell-based
In short: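 Human TRPV1-expressing HEK293 line stimulated by low pH (pH 5.5) as agonist; antagonism measured as inhibition of calcium influx by FLIPR. IC50 reported as mean ± SEM from at least three determinations.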

IC50 [1]: 0.726 µM
IC50 [2]: > 25 µM
Compound: Cc1cc2nc(N3CCN(c4ncccc4Cl)CC3)[nH]c2cc1C
